Results published in patent publication US9868763B2, “Modulators of protease activated receptors” (The University of Queensland, priority 2011, dated 2018).

Target: T1, PAR2 (Homo sapiens, UniProt P55085)
T1 sequence (P55085 26-397): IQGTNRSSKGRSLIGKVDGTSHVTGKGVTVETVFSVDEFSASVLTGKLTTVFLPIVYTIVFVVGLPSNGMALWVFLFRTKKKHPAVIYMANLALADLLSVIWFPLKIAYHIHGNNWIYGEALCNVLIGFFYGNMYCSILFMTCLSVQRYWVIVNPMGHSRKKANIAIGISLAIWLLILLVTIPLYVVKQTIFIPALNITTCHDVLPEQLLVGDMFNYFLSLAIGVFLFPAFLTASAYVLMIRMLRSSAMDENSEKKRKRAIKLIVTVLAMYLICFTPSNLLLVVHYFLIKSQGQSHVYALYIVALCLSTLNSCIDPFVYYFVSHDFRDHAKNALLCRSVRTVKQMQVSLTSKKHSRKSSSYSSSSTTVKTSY
Assay: PAR2 agonist inhibition (antagonism): intracellular Ca2+ release in HT29 cells
Type: cell-based
Parameters: endogenous in cells; host or cells: HT29 (human colorectal adenocarcinoma)
Settings: other ligands; inhibiting Ca2+ release in HT29 cells; 30 min pre-incubation, agonist at EC80
Method: Cells are seeded overnight in 96-well black walled, clear bottomed, plate at approximately 2×10^4 to 4×10^5 cells per well. […] The cells are then washed twice with HBSS and transferred to a Polarstar spectrofluorimeter (BMG, Durham N.C.).
The cells are prepared as outlined above then treated with the ‘putative’ antagonist 30 min prior to the addition of either trypsin or a synthetic agonist at a concentration equal to the agonists EC80.
The cells were then treated with 1 μM of the PAR2 agonist 2f-LIGRLO-NH2 (FIG. 2A, n=5) or 100 nM Trypsin (FIG. 2B, n=1). Each data point represents mean±SEM. Net changes in fluorescence were calculated as a percentage relative to the maximum response given 1 μM 2f-LIGRLO-NH2 or 100 nM Trypsin. Changes in fluorescence (% response) were plotted against logarithmic compound concentrations. The half maximal inhibitory concentration (IC50) values were derived from the dose response curve using a nonlinear regression curve in Graphpad Prism v5.

`CC[C@H](C)[C@@H](NC(=O)[C@H](CC1CCCCC1)NC(=O)c1cc(N)no1)C(=O)N1CCC2(C=Cc3ccccc32)CC1` [Compound 42, 5-(3-amino-isoxazoyl)-Cha-Ile-spiro[indene-1,4′-piperidine]] showed an IC50 of 1200 nM.
